The structures appear in SMILES notation.

One data set relates to MDCK − MDR1. Description: MDCK-MDR1 permeability. The data set is classed as in vitro ADME.
The next data set has as its system P-gp (MDR1). Description: MDCK-MDR1 permeability. The class given is in vitro ADME. To be noted: dog, MDCK-MDR1.
The subject of data set [1] is TG2 relative to other human transglutaminases. Particulars: in vitro.
The next data set deals with T1, hTG2 (Homo sapiens, UniProt P21980).
T1 sequence (P21980 1-687): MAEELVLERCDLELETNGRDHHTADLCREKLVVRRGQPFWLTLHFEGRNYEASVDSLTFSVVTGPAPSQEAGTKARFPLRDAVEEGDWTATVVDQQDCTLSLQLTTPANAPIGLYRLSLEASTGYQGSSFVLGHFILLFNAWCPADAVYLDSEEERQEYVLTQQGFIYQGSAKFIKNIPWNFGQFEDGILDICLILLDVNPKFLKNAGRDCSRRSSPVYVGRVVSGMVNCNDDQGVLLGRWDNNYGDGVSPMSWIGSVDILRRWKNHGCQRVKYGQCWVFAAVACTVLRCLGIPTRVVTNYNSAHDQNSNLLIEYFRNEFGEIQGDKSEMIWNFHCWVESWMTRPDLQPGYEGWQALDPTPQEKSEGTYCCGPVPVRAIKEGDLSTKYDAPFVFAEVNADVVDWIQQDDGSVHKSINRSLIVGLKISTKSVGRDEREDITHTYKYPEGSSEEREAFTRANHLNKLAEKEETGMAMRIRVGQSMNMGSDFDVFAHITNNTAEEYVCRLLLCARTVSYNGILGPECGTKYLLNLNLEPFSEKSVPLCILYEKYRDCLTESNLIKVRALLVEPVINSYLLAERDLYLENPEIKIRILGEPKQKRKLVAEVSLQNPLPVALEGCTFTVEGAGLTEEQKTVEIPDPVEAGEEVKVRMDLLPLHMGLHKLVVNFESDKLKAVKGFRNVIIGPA
Kind of data set: biochemical. The method, then:
The ability of the compounds to inhibit TG2 transamidase activity and the kinetics of TG2 inhibition were investigated using a colorimetric activity assay, as follows:
Colorimetric transamidase activity assay. The activities of hTG1, hTG2 and hTG6 were measured via a colorimetric assay using the chromogenic substrate Cbz-Glu(γ-p-nitrophenyl ester)Gly (AL5), as described (Leblanc, A. et al., “Kinetic studies of guinea pig liver transglutaminase reveal a general-base-catalyzed deacylation mechanism.” Biochemistry 2001, 40 (28), 8335-8342). Assays were conducted at 25° C. in 50 mM MOPS buffer (pH 6.95) containing 7.5 mM CaCl2. […] The substrate AL5 was prepared in as a stock solution in DMSO such that the final concentration of this co-solvent was constant at 2.5% v/v. Stock solutions of the inhibitors were made in water ranging in concentration from 100-500 μM. The reaction was initiated with the addition of enzyme, 0.10 μM hTG1, 0.25 μM hTG2 (4.6 mU/mL) or 0.32 μM hTG6. Formation of hydrolysis product, p-nitrophenolate (pNP), was monitored at 405 nm in a polystyrene 96-well microplate using a BioTek Synergy 4 plate reader. The observed first-order rate constants of inactivation (kobs) were determined via non-linear regression fit to a mono-exponential model (Eqn 1) of absorbance versus time curves. […]

As for `C=CC(=O)NCCCC[C@H](NC(=O)Cc1ccccc1F)C(=O)N1CCN(C(=O)c2cccc3ccccc23)CC1` [Inhibitor 72, (S)-N-(6-(4-(1-naphthoyl)piperazin-1-yl)-5-(2-(2-fluorophenyl)acetamido)-6-oxohexyl)acrylamide], the “MDCK − MDR1 Efflux Ratio” value in the data set with MDCK − MDR1 is 61.7. For the same compound, in the data set on P-gp (MDR1), the efflux ratio is > 50. For the same compound, the “selectivity in reaction with TG2 relative to other human transglutaminases” value in data set [1] was “excellent selectivity”. In addition, the kinact at hTG2 (fit to saturation kinetics model, 25° C., pH 6.95, 100 μM AL5) was 0.00767 s⁻¹. Further, the kinact/KI at hTG2 (pH 6.95) was 7380 M⁻¹ s⁻¹.

Broadly, the efflux ratio is a quotient of directional permeabilities that is used to spot active efflux. In general, kinact refers to the maximal first-order rate at which the target is inactivated. By kinact/KI is commonly meant the maximal inactivation rate divided by the concentration that gives half of it.

(Values after patent US20240383869A1, “ARYLACETYL INHIBITORS OF TG2 AND USES THEREOF” (UNIVERSITY OF OTTAWA, priority 2021, published 2024).)
